Earlier results on one substance are cited in patent publication US9394339B2, “Stabilized formulations of peptides and proteins protecting against non-enzymatic degradation” (Lyotropic Therapeutics, Inc., priority 2007, dated 2016).

The conditions of the data set: aqueous solution, pH 7.4, 37° C., Tris-HCl buffer.

With Ferritin (2FHA): human protein, the “T1/10 (time to 10% degradation by deamidation)” value is 7.0 days.
